Molecular target: T1, Glycine receptor subunit alpha-1 (Rattus norvegicus, UniProt P07727)
T1 sequence (P07727 whole entry): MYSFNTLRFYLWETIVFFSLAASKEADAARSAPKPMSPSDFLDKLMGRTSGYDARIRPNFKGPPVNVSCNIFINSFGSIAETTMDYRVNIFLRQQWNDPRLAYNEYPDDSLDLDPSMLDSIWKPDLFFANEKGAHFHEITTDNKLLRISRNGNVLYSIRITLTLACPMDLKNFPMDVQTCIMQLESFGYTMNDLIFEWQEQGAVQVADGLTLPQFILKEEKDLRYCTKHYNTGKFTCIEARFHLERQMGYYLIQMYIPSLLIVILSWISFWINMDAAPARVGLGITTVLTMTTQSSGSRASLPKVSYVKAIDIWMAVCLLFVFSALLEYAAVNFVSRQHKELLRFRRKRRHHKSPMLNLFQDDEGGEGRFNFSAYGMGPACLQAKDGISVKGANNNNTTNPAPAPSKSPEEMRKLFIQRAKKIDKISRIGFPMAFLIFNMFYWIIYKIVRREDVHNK
Assay: Inhibitory concentration required to inhibit [3H]strychnine binding to […]
Method in brief: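 [3H]Strychnine displacement; IC50 obtained by nonlinear curve fitting to a Langmuir isotherm.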

## NCC(=O)O [GLYCINE]
  IC50: 6.2 µM

— ChEMBL document CHEMBL1126139, “Beta-proline analogues as agonists at the strychnine-sensitive glycine receptor” (J Med Chem, 1992)
